## Permeability data for macrocyclic peptides

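Conditions beyond the assay type are not listed; see the original paper. Other peptides of the study may be missing here. Peptides that the database sets to -10, its floor, are left out.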

PAMPA is the parallel artificial membrane permeability assay, which has no cells and reads passive diffusion. Values are log10 P with P in cm/s, so -5 is more permeable than -7.

The entry for CC(C)C[C@@H]1NC(=O)[C@@H]2CCCN2C(=O)C[C@H](Cc2ccccc2)NC(=O)[C@@H](CC(C)C)N(C)C(=O)[C@@H](C)N(C)C(=O)[C@H](Cc2ccccc2)NC1=O lists PAMPA -5.42 (log10 cm/s). Listed for CC(C)C[C@H]1C(=O)N[C@@H](Cc2ccccc2)C(=O)N2CCC[C@@H]2C(=O)N[C@@H](C)C(=O)N(Cc2ccccc2)CC(=O)N[C@@H](Cc2ccccc2)CC(=O)N2CCC[C@H]2C(=O)N1C: PAMPA -5.63 (log10 cm/s). The entry for CC(C)C[C@H]1C(=O)N(C)[C@@H](CC(C)C)C(=O)N2CCC[C@H]2C(=O)N(Cc2ccccc2)CC(=O)N[C@@H](Cc2ccccc2)C(=O)N2CCC[C@H]2C(=O)N[C@H](C)C(=O)N1C lists PAMPA -5.40 (log10 cm/s). CC(C)C[C@@H]1NC(=O)[C@@H]2CCCN2C(=O)CN(Cc2ccccc2)C(=O)[C@@H](CC(C)C)NC(=O)[C@H](C)NC(=O)[C@H](Cc2ccccc2)NC1=O is reported with PAMPA -5.81 (log10 cm/s). Listed for CC(C)C[C@@H]1C(=O)N[C@H](CC(C)C)C(=O)N2CCC[C@@H]2C(=O)N(C)[C@H](CC(C)C)C(=O)N[C@@H](Cc2ccccc2)C(=O)N2CCC[C@@H]2C(=O)N[C@@H](Cc2ccccc2)CC(=O)N1C: PAMPA -5.33 (log10 cm/s).

CC(C)C[C@@H]1C(=O)N2CCC[C@H]2C(=O)N(C)[C@H](CC(C)C)C(=O)N[C@@H](Cc2ccccc2)C(=O)N2CCC[C@H]2C(=O)N[C@@H](Cc2ccccc2)CC(=O)N[C@H](CC(C)C)C(=O)N1C has PAMPA -5.49 (log10 cm/s). For CC(C)C[C@@H]1C(=O)N(C)[C@@H](CC(C)C)C(=O)N2CCC[C@H]2C(=O)N[C@H](CC(C)C)C(=O)N[C@@H](Cc2ccccc2)C(=O)N2CCC[C@@H]2C(=O)N[C@H](C)C(=O)N1C the data give PAMPA -6.45 (log10 cm/s). CC(C)C[C@@H]1NC(=O)[C@@H](CC(C)C)NC(=O)C[C@H](Cc2ccccc2)NC(=O)[C@H](Cc2ccccc2)NC(=O)[C@H](CC(C)C)N(C)C(=O)[C@@H]2CCCN2C1=O is reported with PAMPA -5.70 (log10 cm/s). CC(C)C[C@@H]1C(=O)N2CCC[C@H]2C(=O)N(C)[C@H](CC(C)C)C(=O)N[C@@H](Cc2ccccc2)C(=O)N2CCC[C@H]2C(=O)N(C)[C@@H](C)C(=O)N(C)[C@@H](CC(C)C)C(=O)N1C has PAMPA -6.14 (log10 cm/s). For CC(C)C[C@@H]1C(=O)N[C@@H](Cc2ccccc2)C(=O)N2CCC[C@@H]2C(=O)N[C@H](C)C(=O)N[C@H](CC(C)C)C(=O)N(Cc2ccccc2)CC(=O)N2CCC[C@H]2C(=O)N1C the data give PAMPA -6.21 (log10 cm/s).

For CCCN1CC(=O)N[C@@H](CC(C)C)C(=O)N[C@@H](CC(C)C)C(=O)N2CCC[C@H]2C(=O)N[C@H](CC(C)C)C(=O)N[C@@H](Cc2ccccc2)C1=O the data give PAMPA -6.08 (log10 cm/s). CCCN1CC(=O)N(C)[C@@H](CC(C)C)C(=O)N[C@@H](CC(C)C)C(=O)N2CCC[C@@H]2C(=O)N[C@H](CC(C)C)C(=O)N[C@@H](Cc2ccccc2)C1=O has PAMPA -5.00 (log10 cm/s). CC(C)C[C@@H]1C(=O)N[C@@H](Cc2ccccc2)CC(=O)N2CCC[C@H]2C(=O)N[C@H](CC(C)C)C(=O)N[C@@H](Cc2ccccc2)C(=O)N(C)[C@@H](C)C(=O)N1C has PAMPA -5.93 (log10 cm/s). For CC(C)C[C@@H]1C(=O)N2CCC[C@@H]2C(=O)N(C)[C@@H](CC(C)C)C(=O)N[C@@H](Cc2ccccc2)C(=O)N2CCC[C@H]2C(=O)N(C)[C@H](C)C(=O)N(C)[C@@H](CC(C)C)C(=O)N1C the data give PAMPA -5.16 (log10 cm/s). For CC(C)C[C@H]1C(=O)N(C)[C@@H](CC(C)C)C(=O)N2CCC[C@@H]2C(=O)N(C)[C@@H](CC(C)C)C(=O)N[C@@H](Cc2ccccc2)C(=O)N2CCC[C@@H]2C(=O)N(C)[C@H](C)C(=O)N1C the data give PAMPA -5.77 (log10 cm/s).

2 of these entries, quoted again:

{"smiles": "CC(C)C[C@@H]1C(=O)N[C@H](CC(C)C)C(=O)N2CCC[C@@H]2C(=O)N(C)[C@H](CC(C)C)C(=O)N[C@@H](Cc2ccccc2)C(=O)N2CCC[C@@H]2C(=O)N[C@@H](Cc2ccccc2)CC(=O)N1C", "PAMPA (log10 cm/s)": "-5.33"}
{"smiles": "CC(C)C[C@@H]1C(=O)N2CCC[C@H]2C(=O)N(C)[C@H](CC(C)C)C(=O)N[C@@H](Cc2ccccc2)C(=O)N2CCC[C@H]2C(=O)N[C@@H](Cc2ccccc2)CC(=O)N[C@H](CC(C)C)C(=O)N1C", "PAMPA (log10 cm/s)": "-5.49"}

Collected by the curators of CycPeptMPDB (Li et al. 2023) from Townsend et al. 2020, doi:10.26434/chemrxiv.13335941.v1.